The target of this experiment is human plasma derived thrombin (human), P00734. As to the kind of experiment: cell-based or functional assay.

B1: MH18 (peptide)
peptide: MHKTAPPFDFEAIPEEYL
modifications: not checked
The molecule B1 gave an IC50, inhibition of thrombin amidolytic activity on S2238, 20 min pre-incubation of 11.7 nM.

Source of the values: US20120135931A1 (priority 2009, published 2012).
